## Apparent affinities of Ab-14 variants for a coronavirus HR2 peptide

Source: Li et al. 2023 (doi:10.1038/s41467-023-39022-2), MIT Lincoln Laboratory and A-Alpha Bio; data file from the FLAb repository.

The target is the same throughout: PDVDLGDISGINAS, from the HR2 region of SARS-CoV-2 spike.

Parent: Ab-14, a human scFv built as VH, the linker GGGGSGGGGSGGGGS, VL. Only the CDRs of the light chain vary.
VH: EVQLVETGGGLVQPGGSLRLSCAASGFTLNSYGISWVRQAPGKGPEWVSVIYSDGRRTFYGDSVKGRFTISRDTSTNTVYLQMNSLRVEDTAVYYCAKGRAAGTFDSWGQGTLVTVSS
VL: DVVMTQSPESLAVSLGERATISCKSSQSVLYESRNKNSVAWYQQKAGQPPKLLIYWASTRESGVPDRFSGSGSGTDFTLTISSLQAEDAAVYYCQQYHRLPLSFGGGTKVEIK

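Designed CDR sequences, proposed from the first random library and measured here. Their group label is 14L_En_Gibbs (En: ensemble of fine-tuned language models; Gibbs: Gibbs sampling). The scFvs were displayed on barcoded MATa yeast, the peptide on MATalpha yeast. The frequency of each diploid, read from paired DNA barcodes, reflects how well the two displayed proteins bind. The ratio of observed to expected reads was calibrated, replicate by replicate, on BCL2-family standards whose Kd was known from biolayer interferometry. The assay was run in six technical replicates.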

Each variant is given by its three light chain CDRs, as the data file delimits them; those of the parent are KSSQSVLYESRNKNSVA, WASTRES, QQYHRLPLS.
Affinities are written as log10 Kd with Kd in nM; a lower number is a better binder.
Where no diploid with the target was found in that replicate, the entry reads "ND": below detection, most likely a poor binder, though not proof of it.

CDR-L1	CDR-L2	CDR-L3	replicates, log10 nM	empty controls
HVHMEFAEEKNIKYNIA	DASMRLA	QQYVRLPLG	0.27 0.13 0.06 0.03 0.10 0.16	2 of 18 (3.13)
KLDLNNGEMDKKGQNIA	EASTAGM	QHYWRLPLS	ND ND ND ND 1.59 ND	0 of 18
KLSLVLGVSKQVEKNIA	NERLKVA	QQYDRLPLT	0.52 0.79 0.61 0.61 0.48 0.95	1 of 18 (1.91)
QLPNARPDGYLQKNNVA	EGTERSD	QQYMRLPLF	0.06 0.04 -0.04 -0.08 -0.12 0.18	1 of 18 (2.15)
MIQYGQERDSEHYNSIA	NDHEVSI	QQYYRLPLV	2.48 1.09 2.00 1.30 2.06 1.47	0 of 18
QVAAIHEHESDQNQAMA	EASMRDA	QQYERLPLS	0.97 0.87 0.76 0.63 0.81 0.70	3 of 18 (3.43)
QVRDEQWAEGMNIQSIA	EGEVRKD	QQYNRLPLS	1.14 1.48 0.93 1.18 1.01 1.14	0 of 18
IMSEGQERDAARLNNIA	DHYTRAT	QQYARLPLH	1.36 1.18 1.02 1.39 1.35 1.10	1 of 18 (2.32)
KVTFYMQDSNAMDNSIA	QTNIYHE	QQYGRLPLV	1.52 1.32 1.33 1.40 0.49 1.83	0 of 18
NLKEMEGDNQTKHGNIA	SVDQTMT	QQYFRLPLA	1.28 0.53 1.12 0.65 0.84 1.16	2 of 18 (2.50)
HLSINLPGQWYMGDSVA	HSERRAE	QQYARLPLG	1.86 1.77 1.25 1.23 1.42 1.28	1 of 18 (2.87)
KLSQGTYGLTGHASNVA	HDEMRWE	QQYDKLPLI	ND ND ND ND ND ND	0 of 18
MISMEEAPASQQASSIA	HGGTRAE	QQYNRLPLC	1.01 0.72 0.54 0.34 0.51 0.86	1 of 18 (2.06)
NVDISENVGYNHKAAVA	GHDERVG	QQYYRLPLA	0.13 -0.10 0.03 -0.22 0.21 0.22	0 of 18
QLQQVQQEDTIGEYNVA	HAEVSGR	QQYSQLPLI	ND ND ND ND 2.68 ND	0 of 18
QLNEYKHETMEKTQNIA	DMTIREP	QQYAHLPLA	0.26 1.22 -0.08 -0.11 0.12 0.38	1 of 18 (2.96)
QLHAYTQGFKRIDGNIA	DISYRAI	QQYGRLPLS	1.56 1.03 1.36 0.84 0.56 1.00	0 of 18
VISMFELQGTGWAQNIA	QASHRTE	QQFSRLPLV	ND ND ND ND ND 1.46	0 of 18
MITAAMNAYGGNRSNIA	DKEISVN	QQYHHLPLS	1.54 1.85 1.40 1.33 1.49 1.93	1 of 18 (2.41)
NLNTEYYTGTSNWNNIA	HGSMVEA	QQYFQLPIQ	0.90 0.39 0.63 0.29 0.45 0.49	0 of 18
HLSINMPQQHYMYDSIA	HSDRREA	QQYYRLPLA	0.20 0.35 -0.02 0.47 0.43 0.58	1 of 18 (3.26)
NISYHQGEPTNSVNNVA	QTSLRAH	QQYHHLPLC	0.89 0.27 0.65 0.23 0.29 0.48	0 of 18
MVNQHDEGFKGVKDNIA	NAATREG	QHYGRLPLS	1.19 0.66 0.53 0.84 0.95 0.98	3 of 18 (2.42)
KISTQIPEFEMDDNAIA	SATLRET	QHYQRLPLS	ND 2.33 2.51 2.87 2.07 2.54	0 of 18
YLSMMAANQVNESSSIA	NAEQTYD	QQYHELPLV	ND 2.07 ND ND 2.47 3.20	0 of 18
QIEWYNSGLLEAKNSVA	GVEHRMN	QQYMRLPLE	0.17 0.04 0.13 -0.02 0.13 0.27	0 of 18
KISFWSYRGSLWHNNIA	GGSQRAE	QQYSRLPLN	2.27 ND ND ND 2.33 ND	0 of 18
HVNHEQLDYKNYENNIA	HVSQRLY	QQYSHLPLS	0.66 0.59 0.42 0.60 0.76 0.83	5 of 18 (2.53)
TFNLEYQGTNEKHQNIA	EVENKTD	QQYVRLPLI	1.71 1.31 2.36 1.07 1.84 2.92	0 of 18
ALSINGPQQHGMNDSIA	HSDRREA	QQYYRLPLA	1.05 0.59 1.01 0.57 1.06 0.89	0 of 18
HISPMQAMHYEAKNQVA	DTETKLN	QQYIRLPLS	0.30 0.02 0.18 -0.31 0.39 0.03	0 of 18
QIDSFYQHGTDDKQAMA	DVSVRDQ	QQYSRLPLS	0.28 0.24 0.23 0.23 0.40 0.31	1 of 18 (3.60)
KLTHPTDSWLNHVNSIA	DANISVE	QQYYQLPLT	0.72 0.62 0.94 0.51 0.48 1.27	1 of 18 (3.85)
SMFEKEYAELQPENNIA	DTTARMV	QQYFRLPLL	0.19 0.37 0.68 0.56 0.51 0.71	0 of 18
AFTNSIFYGQRDDNSIA	HADELVK	QQYFRFPLA	ND 1.10 ND ND ND ND	0 of 18
QLEFYDVQGTAKWHAIA	EGSQLGQ	QQYFHLPLG	ND ND ND 0.65 ND 0.95	0 of 18
ALASTGHQVDSQMQNIA	DGMERES	QQYNRLPLT	0.14 0.16 -0.08 -0.13 0.28 0.17	1 of 18 (2.68)
KLDEDVGNHTHDQKNIA	DESRVDR	QQYAHLPLS	ND ND 0.41 ND 0.90 ND	0 of 18
VIKNMMNTMGTQHQNIA	NGAIKAD	QQYQRLPLW	0.03 -0.24 -0.26 -0.29 -0.34 -0.17	1 of 18 (3.24)
HFSVETMEFMGPNKNIA	EVSTTML	QQYARLPFM	1.21 1.18 1.19 1.63 1.18 1.75	1 of 18 (2.42)
KLDQKDRVNGMACYNVA	DSNNRLD	QQYHRLPLI	0.92 0.97 0.75 0.86 0.78 1.02	3 of 18 (3.28)
NLMSHQSEYDVWKYSIA	EASIRLS	QQYFRLPLA	1.33 1.31 ND 2.13 ND ND	0 of 18
KISMGWEMNSRQNHNMA	EADLKCS	QQYNRLPLF	0.73 0.68 0.68 0.48 0.43 0.69	0 of 18
NISIEDVSEHNQANNVA	STDCRCS	QQYFHLPLM	0.73 0.72 0.63 0.29 0.32 0.76	0 of 18
QLDTGLQYMDANKNSVA	EMTEETT	QQYHRLPLE	ND ND ND ND ND 2.47	0 of 18
MLTRFNLQNQGNSNNIA	DTNQVQE	QQYFRLPFA	ND ND ND ND ND ND	0 of 18
NVHALDAISQEFQNNVA	GQDCRDA	QQYFRLPLA	0.71 1.21 ND 0.38 2.01 0.45	0 of 18
MITDDELTEGNDRNNIA	HNNVAED	QQYQQLPLV	0.91 0.90 0.77 0.67 1.04 1.00	3 of 18 (2.22)
TLWDWIQGGDWAKKNVA	DEQTRMV	QQYYRLPLS	0.91 0.52 0.35 0.72 0.47 0.56	0 of 18

The first 4 entries again:

{"CDR-L1": "HVHMEFAEEKNIKYNIA", "CDR-L2": "DASMRLA", "CDR-L3": "QQYVRLPLG", "replicates, log10 nM": "0.27 0.13 0.06 0.03 0.10 0.16", "empty controls": "2 of 18 (3.13)"}
{"CDR-L1": "KLDLNNGEMDKKGQNIA", "CDR-L2": "EASTAGM", "CDR-L3": "QHYWRLPLS", "replicates, log10 nM": "ND ND ND ND 1.59 ND", "empty controls": "0 of 18"}
{"CDR-L1": "KLSLVLGVSKQVEKNIA", "CDR-L2": "NERLKVA", "CDR-L3": "QQYDRLPLT", "replicates, log10 nM": "0.52 0.79 0.61 0.61 0.48 0.95", "empty controls": "1 of 18 (1.91)"}
{"CDR-L1": "QLPNARPDGYLQKNNVA", "CDR-L2": "EGTERSD", "CDR-L3": "QQYMRLPLF", "replicates, log10 nM": "0.06 0.04 -0.04 -0.08 -0.12 0.18", "empty controls": "1 of 18 (2.15)"}

Three control strains display no target. For all light chain designs, 4% of the pairings with them gave a signal, with a median of 2.64 and one signal in twenty below 1.59, so weak values seen in few replicates may be background. For each scFv, signals with the empty controls are counted beside the result, with their mean in brackets.
The parent sequence was in this pool as ten entries: three were never detected, three once, and four in most replicates, with averages from 0.34 to 2.37.
In the paper, a design with two or fewer of six values counts as a poor binder.
A sequence measured in both rounds can read differently, since the two assays cover different ranges.